Drawing on doi:10.1101/2025.05.02.651384v1 (biorxiv, 2025), this text covers EC50 for 7 molecules.

Protein sequences, listed by entry. Tags and fused reporters are not part of them.
UniProt Q9BXC0, whole entry: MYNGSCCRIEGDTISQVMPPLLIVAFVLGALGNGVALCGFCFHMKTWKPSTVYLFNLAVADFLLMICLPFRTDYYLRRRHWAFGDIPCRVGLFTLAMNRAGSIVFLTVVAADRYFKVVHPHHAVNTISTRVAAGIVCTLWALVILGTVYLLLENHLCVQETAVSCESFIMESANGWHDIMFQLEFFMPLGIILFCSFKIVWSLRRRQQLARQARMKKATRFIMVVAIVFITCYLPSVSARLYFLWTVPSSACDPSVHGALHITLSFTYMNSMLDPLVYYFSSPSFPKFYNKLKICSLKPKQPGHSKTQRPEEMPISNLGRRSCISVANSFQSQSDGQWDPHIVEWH

The experiment concerns the target HCAR1 (GPR81) (Homo sapiens, UniProt Q9BXC0). Briefly: ebBRET Gαi2 activation. It counts as cell-based. The settings on record: Gαi2, 37 °C, agonist.

In general, EC50 refers to the concentration at which the effect is half-maximal. Turning to `CCOc1cc(Cl)c(C(=O)NC(=O)Nc2nc3ccc(CN4CCN(C)CC4)cc3s2)cc1N1CCOCC1`, the EC50 is 480 nM. That is a sub-micromolar value.
`CCOc1cc(Cl)c(C(=O)NC(=O)Nc2nc3ccc(CN4CCN(C)CC4)cc3s2)cc1-n1cccn1` had an EC50 of 450 nM.
As for `CCOc1cc(Cl)c(C(=O)NC(=O)Nc2nc3ccc(S(=O)(=O)C4CCN(C)CC4)cc3s2)cc1-n1cccn1`, the figure is 750 nM.
As for `CCOc1cc(Cl)c(C(=O)Nc2nc3ccc(S(=O)(=O)CCCN4CCN(C)CC4)cc3s2)cc1N1C[C@@H](C)O[C@@H](C)C1`, the figure is 230 nM; as for `CCOc1cc(Cl)c(C(=O)Nc2nc3ccc(S(=O)(=O)CCCN4CCN(C)CC4)cc3s2)cc1N1CCOCC1`, 1300 nM; as for `CCOc1cc(Cl)c(C(=O)NC(=O)Nc2nc3ccc(CN4CCN(C)CC4)cc3s2)cc1-c1ccn[nH]1`, 2500 nM.
Then `CCOc1cc(Cl)c(-c2ncc(-c3nc4ccc(S(=O)(=O)C5CCN(C)CC5)cc4s3)c(=O)[nH]2)cc1N1CCOCC1`, with 1100 nM.
